Laboratory results from publication PMC2662459, “Developmental Toxicity of Ochratoxin A in Rat Embryo Midbrain Micromass Cultures” (International Journal of Molecular Sciences, 2008).

Assays:
[1] = tested on: MAP2 expression (neurons in late stage of development); experiment: Differentiation, immunoenzymatic determination of MAP2 expression; format: cell-based, rat; conditions: NRU IC50 over ID50
Description: (§1) This study was carried out according to compliance with bioethical principles. Wistar albino rats were housed under standard laboratory condition of lighting (12 h dark/12 h light), temperature (20 ± 2 °C), and relative humidity (50 – 60%) with free access to commercial feed (Murigan) and tap water. Animals (10–12 week old) were mated overnight and the appearance of a vaginal plug on the next morning was considered as day one of pregnancy. Rat embryos were collected on day 13 of gestation. Procedures were followed essentially as described in INVITTOX Protocol No. 114 [23].
(§2) Tissues were pooled from a number of embryos, washed and incubated for 20 min at 37 °C in sequence in Earle’s balanced salt solution calcium and magnesium-free (CMF, GIBCO), and 1% trypsin (GIBCO) in CMF. […] Viable cells density was assessed by trypan blue exclusion assay using Bürker’s haemocytometer. […]
(§3) To indicate the target cells damaged, immunofluorescent (IF) and immunoenzymatic (IE) staining was performed. […] IF staining fluorescence was examined using a fluorescent microscope (λ = 490 nm). In IE staining, a substrate (3,3’,5,5’-tetramethylbenzidine, SIGMA) was added (100 μL/well) and reaction was evaluated for 30 min at room temperature. […] The expression level of particular proteins was determined by measuring optical density at 450 nm. […]

[2] = tested on: rat embryo midbrain micromass cultures (neurospheres); experiment: Differentiation, computerised image analysis of haematoxylin stained neurospheres; format: cell-based
Description: as §1
Tissues were pooled from a number of embryos, washed and incubated for 20 min at 37 °C in sequence in Earle’s balanced salt solution calcium and magnesium-free (CMF, GIBCO), and 1% trypsin (GIBCO) in CMF. Then the tissues were washed in CMF and culture medium (Ham’s F-12 nutrient mixture: foetal bovine serum: L-glutamine: penicillin/streptomycin - 88:10:1:1 v/v – all materials were from GIBCO). A single cell suspension was ensured by mechanical dissociation followed by passing the suspension through sterile 10 μm nylon mesh. Viable cells density was assessed by trypan blue exclusion assay using Bürker’s haemocytometer.
High-cell-density cultures were set up carefully as a 5–10 μL drop in the centre of each well of 96-well fibronectin coated microplate (BECTON DICKINSON), so that number of cells /well was 5 × 10^4. After 2 h incubation (37°C, 5% CO2) the cells were exposed to different concentrations of tested compounds and incubated five days. Then dual assessment i.e. cytotoxicity and an impact of tested compound on cells differentiation (embryotoxicity) were done in the same cultures.
After removing the eluted solution, the cells were fixed in 10% formaldehyde for 20 min and stained (approximately 10 s) with Gill’s haematoxylin. Morphometric analysis was performed on digitised images of cells taken with Nikon SMZ stereoscopic microscope linked to Panasonic CCD BP-KR 222E colour camera. The number of neurospheres (containing differentiated neural cells) was counted and their total and individual area was measured using computer image analysis software (LUCIA Measurement System).
The values of drug concentration, which inhibited cells viability by 50% (IC50) and reduced differentiation by 50% (ID50) when compared to unexposed control cells, were calculated according to Hill’s equation (sigmoidal model of concentration-response curve). Statistically significant differences between mean values obtained in immunoenzymatic analysis were determined based on analysis of variance (ANOVA) followed by Tukey – Kramer post-hoc test. Values of P < 0.05 were considered as statistically significant. All calculations were done using LSW Data Analysis Toolbox ver. 1.1.1. (MDL® Information Systems, Inc.) in Microsoft Excel 2000 spreadsheet and Kyplot software (Koichi Yoshioka, version 2.0 beta 4). In order to classify embryotoxic potential the mean inhibition concentrations for differentiation (ID50) of test chemical was used and the biostatistically based prediction model (PM) was applied. It is based on the linear discriminate analysis of three functions: function I: 6.65 × log (ID50)–9.49; function II: 6.16 × log (ID50)–8.29; function III: –1.31 × log (ID50)–1.42. The function providing the highest value was used to determine the class of embryotoxicity (class 1 – non-embryotoxic, class 2 – weakly embryotoxic, class 3 – strongly embryotoxic).

[3] = tested on: GFAP expression (astrocytes); experiment: Differentiation, immunoenzymatic determination of GFAP expression; format: cell-based, rat; conditions: NRU IC50 over ID50
Description: as §1, §2, §3

[4] = five days exposure, computerised image analysis, mean±SD from 3 independent experiments

O=c1[nH]cc(F)c(=O)[nH]1 [5-FU, 5-fluorouracil, reference compound]
IC50/ID50 ratio: MAP2 [1]: 0.9 | IC50/ID50 ratio: Number of neurospheres [2]: 0.9 | IC50/ID50 ratio: Particular area of neurospheres [2]: 0.7 | IC50/ID50 ratio: Total area of neurospheres [2]: 0.9 | Inhibition of differentiation, ID50: Number of neurospheres [2, 4]: 0.17 ± 0.016 µg/mL | Inhibition of differentiation, ID50: Particular area of neurospheres [2, 4]: 0.21 ± 0.015 µg/mL | Inhibition of differentiation, ID50: Total area of neurospheres [2, 4]: 0.16 ± 0.010 µg/mL | IC50/ID50 ratio: GFAP [3]: 0.8
